By UniProt entry, the sequences of proteins in these tests, tags left out.
UniProt P0DMS8, whole entry: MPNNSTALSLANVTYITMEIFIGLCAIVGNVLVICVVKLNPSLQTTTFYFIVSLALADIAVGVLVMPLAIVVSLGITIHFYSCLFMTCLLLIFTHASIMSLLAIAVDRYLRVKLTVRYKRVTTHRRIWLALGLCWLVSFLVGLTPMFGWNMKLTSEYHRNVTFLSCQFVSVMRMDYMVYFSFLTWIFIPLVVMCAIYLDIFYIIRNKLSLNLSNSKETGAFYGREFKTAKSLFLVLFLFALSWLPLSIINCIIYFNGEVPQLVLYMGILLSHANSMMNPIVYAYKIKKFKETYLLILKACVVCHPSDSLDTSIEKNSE

According to US20110118276A1, “METHODS OF TREATING ATHEROSCLEROSIS” (priority 2008, published 2011):

Target: T1, human A3 adenosine receptors (Homo sapiens, UniProt P0DMS8)
T1 construct: U937 cells and macrophages were homogenized, respectively, in hypotonic buffer and phosphate-buffered saline (PBS); endogenous in cells; host or cells: PMA-treated U937 cells, human macrophages, U937-derived foam cells (membranes)
Assay: Saturation binding with [3H]MRE 3008F20 to label A3 adenosine receptors

- Kd (U937 cells, hypoxic): 2 ± 0.1 nM
- Kd (U937 cells, normoxic): 1.5 ± 0.1 nM
- Kd (foam cells, hypoxic): 2.3 ± 0.1 nM
- Kd (foam cells, normoxic): 1.7 ± 0.1 nM
- Kd (human macrophages, hypoxic): 4.8 ± 0.7 nM
- Kd (human macrophages, normoxic): 4.5 ± 0.5 nM
SMILES: CCCn1cc2c(nc(NC(=O)Nc3ccc(OC)cc3)n3nc(-c4ccco4)nc23)n1 [[^3H]MRE-3008F20, 5-N-(4-methoxyphenyl-carbamoyl)amino-8-propyl-2-(2furyl)-pyrazolo-[4,3e]-1,2,4-triazolo[1,5-c]pyrimidine]
